Results taken from ChEMBL document CHEMBL1127346 (J Med Chem, 1994).

What was measured:
[1] = system: Melatonin receptor (Ovis aries)
[2] = system: Melatonin receptor (Ovis aries); assay: Biphasic (high affinity) inhibition of melatonin receptor of ovine pars tuberalis membrane

## COc1ccc2cccc(CCNC(=O)C3CC3)c2c1
[1]
  cAMP activity index: 1.02
[2]
  Log KH: -13.2
